Results published in publication PMC4281100 (Journal of Medicinal Chemistry, 2014).

Chains of the proteins cited; added tags and fusions are not shown.
UniProt O00763, whole entry: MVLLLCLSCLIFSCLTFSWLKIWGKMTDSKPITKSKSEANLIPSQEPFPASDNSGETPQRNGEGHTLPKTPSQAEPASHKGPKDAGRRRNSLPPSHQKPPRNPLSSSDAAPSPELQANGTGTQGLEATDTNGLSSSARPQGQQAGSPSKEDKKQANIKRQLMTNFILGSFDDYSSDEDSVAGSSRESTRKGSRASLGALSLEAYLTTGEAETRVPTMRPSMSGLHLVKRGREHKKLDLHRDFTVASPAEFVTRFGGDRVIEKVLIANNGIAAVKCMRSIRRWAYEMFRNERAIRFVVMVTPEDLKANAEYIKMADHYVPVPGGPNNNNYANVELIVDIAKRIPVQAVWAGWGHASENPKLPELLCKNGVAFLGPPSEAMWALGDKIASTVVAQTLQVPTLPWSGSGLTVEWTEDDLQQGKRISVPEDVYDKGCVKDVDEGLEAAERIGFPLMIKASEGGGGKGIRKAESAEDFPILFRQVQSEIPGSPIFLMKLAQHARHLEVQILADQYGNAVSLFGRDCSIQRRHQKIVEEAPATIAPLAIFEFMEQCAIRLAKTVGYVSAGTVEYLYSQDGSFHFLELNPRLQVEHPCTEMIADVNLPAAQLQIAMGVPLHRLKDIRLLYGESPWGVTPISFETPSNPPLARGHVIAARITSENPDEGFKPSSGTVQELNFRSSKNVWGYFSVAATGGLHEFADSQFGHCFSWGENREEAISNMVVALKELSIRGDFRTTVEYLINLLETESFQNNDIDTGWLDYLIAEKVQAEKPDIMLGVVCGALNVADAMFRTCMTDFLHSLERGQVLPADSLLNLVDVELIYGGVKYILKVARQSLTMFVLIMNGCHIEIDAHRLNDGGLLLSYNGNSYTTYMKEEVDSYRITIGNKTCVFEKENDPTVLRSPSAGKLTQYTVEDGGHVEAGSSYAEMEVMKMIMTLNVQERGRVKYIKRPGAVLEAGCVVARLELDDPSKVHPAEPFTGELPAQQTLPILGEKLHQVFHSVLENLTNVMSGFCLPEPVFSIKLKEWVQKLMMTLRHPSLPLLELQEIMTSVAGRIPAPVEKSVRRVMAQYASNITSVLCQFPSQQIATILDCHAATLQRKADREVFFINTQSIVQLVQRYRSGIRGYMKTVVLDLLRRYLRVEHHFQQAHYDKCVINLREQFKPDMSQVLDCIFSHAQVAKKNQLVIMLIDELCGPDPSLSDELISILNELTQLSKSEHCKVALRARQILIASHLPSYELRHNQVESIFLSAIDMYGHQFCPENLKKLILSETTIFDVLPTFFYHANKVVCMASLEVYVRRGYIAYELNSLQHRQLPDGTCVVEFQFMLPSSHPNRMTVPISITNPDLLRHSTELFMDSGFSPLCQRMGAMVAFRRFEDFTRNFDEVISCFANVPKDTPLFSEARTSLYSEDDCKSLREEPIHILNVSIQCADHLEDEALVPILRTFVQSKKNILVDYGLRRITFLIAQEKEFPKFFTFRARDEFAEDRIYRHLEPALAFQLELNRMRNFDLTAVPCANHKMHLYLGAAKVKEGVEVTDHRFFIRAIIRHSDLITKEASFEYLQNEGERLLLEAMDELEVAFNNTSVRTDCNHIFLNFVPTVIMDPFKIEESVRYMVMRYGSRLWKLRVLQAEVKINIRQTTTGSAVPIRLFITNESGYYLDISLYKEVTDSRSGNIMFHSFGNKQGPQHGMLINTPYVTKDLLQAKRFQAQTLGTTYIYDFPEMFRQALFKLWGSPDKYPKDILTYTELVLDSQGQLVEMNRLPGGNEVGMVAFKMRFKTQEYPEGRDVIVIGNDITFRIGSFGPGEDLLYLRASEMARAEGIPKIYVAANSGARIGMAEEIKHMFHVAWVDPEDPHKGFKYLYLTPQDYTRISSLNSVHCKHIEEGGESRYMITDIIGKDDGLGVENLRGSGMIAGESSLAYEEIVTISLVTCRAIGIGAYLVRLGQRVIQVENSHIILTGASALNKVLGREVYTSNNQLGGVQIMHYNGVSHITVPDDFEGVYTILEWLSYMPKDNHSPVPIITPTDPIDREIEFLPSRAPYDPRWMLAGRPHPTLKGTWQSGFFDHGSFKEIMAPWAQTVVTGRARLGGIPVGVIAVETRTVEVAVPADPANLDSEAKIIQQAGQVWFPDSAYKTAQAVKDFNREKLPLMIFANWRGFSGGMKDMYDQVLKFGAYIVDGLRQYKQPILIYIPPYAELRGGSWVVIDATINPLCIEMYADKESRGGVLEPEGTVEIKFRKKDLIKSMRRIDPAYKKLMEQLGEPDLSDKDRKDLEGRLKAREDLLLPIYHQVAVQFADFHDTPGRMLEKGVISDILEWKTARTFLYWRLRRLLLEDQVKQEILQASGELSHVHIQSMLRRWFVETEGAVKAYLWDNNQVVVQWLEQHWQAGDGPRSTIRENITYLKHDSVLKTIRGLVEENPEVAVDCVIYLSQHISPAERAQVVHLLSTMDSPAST

Key:
human ACC2 = human ACC2 (Homo sapiens, UniProt O00763); experiment: Transcreener ACC inhibition assay, recombinant human ACC2; format: biochemical; details: lipophilic efficiency
human ACC1 = human ACC1 (Homo sapiens, UniProt Q13085); experiment: Transcreener ACC inhibition assay, recombinant human ACC1; format: biochemical; details: lipophilic efficiency

Compound: Cc1nc2ccc(C(=O)N3CCC4(CC3)CC(=O)c3c(cnn3C(C)C)C4)cc2[nH]1 [Compound 9, 1-Isopropyl-1′-(2-methyl-1H-benzo[d]imidazole-6-carbonyl)-1,4-dihydrospiro[indazole-5,4′-piperidin]-7(6H)-one]
- ACC2 LipE (human ACC2): 5.5
- ACC1 LipE (human ACC1): 5.1
